Key:
α3β4 = target: T1, α3β4 (Homo sapiens, UniProt P30926+P32297); test: Ion channel panel (IonWorks Barracuda): α3β4; format: cell-based
T1 construct: host or cells: HEK293 or CHO
Experimental: (§1) This example describes a method for assaying ion channel activity in cells.
(§2) Peptides were screened in duplicate at final concentrations of 20 μM and 200 nM, as determined by amino acid analysis, and diluted into HEPES buffered physiological saline (HBPS). HEK293 or CHO cells from the American Type Culture Collection (ATCC) were transfected with the appropriate ion channel before use. HEK293 cells were grown in Dulbecco's Modified Eagle Medium/Nutrient Mixture F-12, and CHO cells were cultured in Ham's F-12 media. All cultures were supplemented with 10% fetal bovine serum, 100 U/ml penicillin G, 100 μg/ml streptomycin sulfate, and the appropriate selection antibiotics. Prior to use, cells were washed twice with Hank's Balanced Salt Solution, and treated with Accutase cell detachment solution (Sigma-Aldrich). Cells were then washed. Peptides and controls were incubated with cells for at least five minutes.
(§3) Percent inhibition was defined as: (1-(Ipeptide/Icontrol))×100%).
(§4) Percent values were calculated using the following formula: % activation=(IPeptide/Icontrol)×100%, where IPeptide is the current produced by co-application a peptide with agonist, and Icontrol refers to the current produced by stimulation in control. Control used for each ion channel is the reference compound matched to a particular channel, as illustrated in TABLE 10 below.

Amino acid sequences for entries named in this document (tags omitted). Residues count along the entry.
UniProt P30926, 22-498: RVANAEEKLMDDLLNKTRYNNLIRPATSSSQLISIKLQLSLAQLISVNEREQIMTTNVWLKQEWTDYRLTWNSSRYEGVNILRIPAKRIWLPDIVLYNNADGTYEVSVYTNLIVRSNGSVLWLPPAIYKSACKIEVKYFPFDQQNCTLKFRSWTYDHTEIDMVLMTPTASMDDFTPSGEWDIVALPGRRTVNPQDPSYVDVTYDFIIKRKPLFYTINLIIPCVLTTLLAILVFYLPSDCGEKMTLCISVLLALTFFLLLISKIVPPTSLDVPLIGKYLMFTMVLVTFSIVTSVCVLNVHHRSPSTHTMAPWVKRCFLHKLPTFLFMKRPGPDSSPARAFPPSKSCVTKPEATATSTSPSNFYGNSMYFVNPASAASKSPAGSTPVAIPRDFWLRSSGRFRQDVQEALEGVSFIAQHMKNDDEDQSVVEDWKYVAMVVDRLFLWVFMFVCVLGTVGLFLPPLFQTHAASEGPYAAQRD
UniProt P32297, 32-505: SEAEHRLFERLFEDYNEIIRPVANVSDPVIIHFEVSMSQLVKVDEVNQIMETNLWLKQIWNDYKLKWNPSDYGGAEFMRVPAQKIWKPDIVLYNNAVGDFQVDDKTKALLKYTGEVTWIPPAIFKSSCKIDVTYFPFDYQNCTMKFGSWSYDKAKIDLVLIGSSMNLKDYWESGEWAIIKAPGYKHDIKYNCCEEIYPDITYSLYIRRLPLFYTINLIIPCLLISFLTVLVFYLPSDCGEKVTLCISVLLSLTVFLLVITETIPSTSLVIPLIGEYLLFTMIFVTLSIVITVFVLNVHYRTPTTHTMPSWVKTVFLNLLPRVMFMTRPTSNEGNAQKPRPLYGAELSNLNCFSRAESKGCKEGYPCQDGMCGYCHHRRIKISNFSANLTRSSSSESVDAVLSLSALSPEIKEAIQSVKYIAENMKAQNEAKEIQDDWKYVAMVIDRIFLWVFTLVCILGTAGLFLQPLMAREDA
UniProt Q12879, 23-1464: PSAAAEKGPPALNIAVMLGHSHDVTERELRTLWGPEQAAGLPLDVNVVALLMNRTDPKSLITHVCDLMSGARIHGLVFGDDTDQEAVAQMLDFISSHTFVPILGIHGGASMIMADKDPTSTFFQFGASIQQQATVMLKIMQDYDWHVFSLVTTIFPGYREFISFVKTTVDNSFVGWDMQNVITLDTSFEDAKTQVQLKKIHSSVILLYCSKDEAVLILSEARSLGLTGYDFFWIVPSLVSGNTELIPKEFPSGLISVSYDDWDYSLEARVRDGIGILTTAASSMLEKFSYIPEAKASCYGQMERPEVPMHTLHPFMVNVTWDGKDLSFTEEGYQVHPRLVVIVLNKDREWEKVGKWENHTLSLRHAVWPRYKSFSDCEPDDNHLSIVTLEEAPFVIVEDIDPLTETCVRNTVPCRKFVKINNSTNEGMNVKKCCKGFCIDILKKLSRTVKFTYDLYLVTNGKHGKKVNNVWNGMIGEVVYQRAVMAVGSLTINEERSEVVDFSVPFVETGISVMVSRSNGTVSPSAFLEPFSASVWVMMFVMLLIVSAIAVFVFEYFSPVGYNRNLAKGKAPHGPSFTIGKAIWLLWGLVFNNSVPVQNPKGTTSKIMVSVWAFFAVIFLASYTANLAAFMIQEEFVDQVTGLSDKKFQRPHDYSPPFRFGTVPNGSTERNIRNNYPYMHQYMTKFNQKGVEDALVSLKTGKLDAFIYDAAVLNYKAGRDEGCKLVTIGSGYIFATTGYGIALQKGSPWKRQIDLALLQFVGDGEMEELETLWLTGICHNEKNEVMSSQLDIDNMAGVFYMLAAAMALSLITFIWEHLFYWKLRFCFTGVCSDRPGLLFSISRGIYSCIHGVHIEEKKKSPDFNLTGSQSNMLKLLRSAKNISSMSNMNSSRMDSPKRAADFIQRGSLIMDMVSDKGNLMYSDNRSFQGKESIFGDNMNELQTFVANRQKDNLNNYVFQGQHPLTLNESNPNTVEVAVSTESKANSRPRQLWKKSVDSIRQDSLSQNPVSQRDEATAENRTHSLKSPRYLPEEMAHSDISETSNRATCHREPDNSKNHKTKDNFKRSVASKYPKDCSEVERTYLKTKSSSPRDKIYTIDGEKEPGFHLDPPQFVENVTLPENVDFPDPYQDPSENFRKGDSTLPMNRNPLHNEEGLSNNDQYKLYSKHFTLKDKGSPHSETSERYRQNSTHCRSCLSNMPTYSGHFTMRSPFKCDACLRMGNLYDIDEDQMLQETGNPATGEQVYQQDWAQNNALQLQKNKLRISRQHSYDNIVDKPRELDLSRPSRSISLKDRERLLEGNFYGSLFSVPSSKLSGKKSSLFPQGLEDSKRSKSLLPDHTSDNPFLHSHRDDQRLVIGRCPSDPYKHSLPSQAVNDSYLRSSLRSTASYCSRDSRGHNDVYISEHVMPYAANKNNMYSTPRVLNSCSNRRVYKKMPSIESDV

NR2A = target: T2, NR2A (Homo sapiens, UniProt Q12879); test: Ion channel panel (IonWorks Barracuda): NR2A; format: cell-based
T2 construct: host or cells: HEK293 or CHO
Experimental: as §1, §2, §3, §4

Compound | IC50 (α3β4) | IC50 (NR2A)
CNC1(C)C2CCC(C2)C1(C)C (centres unmarked) [Mecamylamine, reference compound] | 1770 nM | 
CC12CC3CC(C)(C1)CC(N)(C3)C2 [Memantine, reference compound] |  | 3.77 µM
